Source: US12583858B2 (Genentech, Inc., priority 2015, dated 2026)

By UniProt entry, the sequences of proteins in these tests, tags left out.
UniProt P48775, whole entry: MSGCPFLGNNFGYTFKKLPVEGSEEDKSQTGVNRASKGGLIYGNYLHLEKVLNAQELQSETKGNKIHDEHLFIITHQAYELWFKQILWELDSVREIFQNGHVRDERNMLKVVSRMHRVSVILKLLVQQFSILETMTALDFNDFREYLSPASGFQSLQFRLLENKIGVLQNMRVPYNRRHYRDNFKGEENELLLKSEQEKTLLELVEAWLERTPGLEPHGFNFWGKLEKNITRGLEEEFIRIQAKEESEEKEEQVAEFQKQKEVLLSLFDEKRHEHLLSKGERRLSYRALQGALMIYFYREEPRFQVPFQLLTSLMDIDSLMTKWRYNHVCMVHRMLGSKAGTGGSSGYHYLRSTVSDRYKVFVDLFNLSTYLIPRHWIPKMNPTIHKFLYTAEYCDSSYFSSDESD

target: TDO2 (Homo sapiens, UniProt P48775); experiment: TDO2 cell assay (NFK GreenScreen, SW48 cells); settings: read-out: TDO2 Cell Fluor EC50; SW48 cells (high TDO expressing), 200 uM tryptophan, 24 hours; Table 3

Point of comparison: `CC(C)S(=O)(=O)N1CCC(C2c3ccccc3-c3cncn32)C(O)C1` (single isomer, unassigned) [80c], EC50 15000 nM. Against it:
- O[C@H]1COCC[C@@H]1[C@@H]1c2ccccc2-c2cncn21 — higher, > 25000 nM
- CC1(C)CCC(O)(C2c3ccccc3-c3cncn32)CC1 (centres unmarked) — 20-fold lower, 760 nM
- OC1(C2c3ccccc3-c3cncn32)CCCCCC1 (centres unmarked) — 48-fold lower, 310 nM
- OC1COCCC1C1c2ccccc2-c2cncn21 (single isomer, unassigned) [06c] — within 1.5-fold, 11000 nM
- O[C@H]1COCC[C@@H]1[C@H]1c2ccccc2-c2cncn21 — 12-fold lower, 1300 nM
- OC1COCCC1C1c2ccccc2-c2cncn21 (single isomer, unassigned) [06b] — 190-fold lower, 78 nM

same assay, conditions: read-out: TDO2 cell Fluor EC50; SW48 cells (high TDO expressing); TDO selectivity table

For `OC1COCCC1C1c2ccccc2-c2cncn21` (single isomer, unassigned) [06b], the EC50 was 78 nM.
